# Antibody variant affinities, Ab-95 light chain, assay 2

Reference: Engelhart et al. 2022, doi:10.1038/s41597-022-01779-4. File: FLAb, binding data.

Target peptide (SARS-CoV-2 spike, HR2 region): PDVDLGDISGINAS

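Variants in AAYL52 differ from the parent at up to three CDR positions; double and triple changes were sampled at random. Affinity was read by AlphaSeq, a pooled yeast mating assay with surface-displayed partners. Binding brings cells together so that they mate, and sequencing counts the barcode pairs among the diploids. Read counts were normalised to the haploid input and turned into Kd by a linear fit to BCL2-family pairs of known affinity, for each replicate. There are three technical replicates.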

Parent: Ab-95, a human scFv built as VH, a (GGGGS)3 linker, VL. Only the CDRs of the light chain vary.
VH: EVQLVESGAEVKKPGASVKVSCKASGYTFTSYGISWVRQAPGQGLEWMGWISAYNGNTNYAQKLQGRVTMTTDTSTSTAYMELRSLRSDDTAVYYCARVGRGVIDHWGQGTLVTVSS
VL: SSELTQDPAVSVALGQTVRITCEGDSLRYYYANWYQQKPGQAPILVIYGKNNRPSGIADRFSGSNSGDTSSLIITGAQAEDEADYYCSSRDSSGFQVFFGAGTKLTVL

The parent's light chain CDRs are EGDSLRYYYAN, GKNNRPS, SSRDSSGFQVF; each variant's own CDRs replace them letter for letter. Values are log10 of the apparent Kd in nM; lower means stronger binding. "nd" means that the variant was in the library but no mating with the target was seen in that replicate; the authors take this as a sign of poor binding, and no number exists. Empty control strains, which show no peptide, gave a signal in 28% of pairings with library AAYL52; the median was 3.91 and 95% of these signals were weaker than 2.90. No background was subtracted. For each scFv, signals with the empty controls are counted beside the result, with their mean in brackets.

| CDR-L1 | CDR-L2 | CDR-L3 | log10 Kd (nM) by replicate | control signals |
|---|---|---|---|---|
| EGDSCRYYYAN | YKNNRRS | SSRDSSGFQVF | nd nd nd | 0/9 |
| EGFSLRYYYAN | GKNFRPS | SKRDSSGFQVF | 4.41 4.22 nd | 1/9 (5.19) |
| EGDCLRYYYAN | GKNIRPI | SSRDSSGFQVF | 2.56 2.28 2.88 | 2/9 (3.66) |
| EGDSLRYYYAN | RINARPS | SSRDSSGFQVF | 4.02 4.09 nd | 2/9 (4.37) |
| AGVSLRYYYAN | GKNNRFS | SSRDSSGFQVF | 4.13 3.26 3.16 | 3/9 (4.73) |
| EGDSNRYYYAN | GKNNRPM | SSRDSSWFQVF | 2.79 nd nd | 3/9 (3.84) |
| EGPSLRYYMAN | FKNNRPS | SSRDSSGFQVF | nd 4.15 nd | 6/9 (3.92) |
| EGDSLRYYYAN | GKNPTPS | SSRDSEGFQVF | nd 5.94 nd | 3/9 (3.70) |
| EEDSLRYYYAN | WKNNRPS | SSADSSGFQVF | nd nd 3.81 | 1/9 (4.21) |
| EGDSLRYYDAN | GKNNRPS | SSRDNSGFQVT | 0.83 1.14 0.46 | 1/9 (4.90) |
| EGGSLLYYYAN | GKNNRPS | SSRDSSGFQVN | 3.20 nd nd | 1/9 (4.64) |
| ERDSLRYYYAN | GKNNRPS | SYRCSSGFQVF | 5.55 nd nd | 4/9 (3.28) |
| EGDSLRYYYAN | GKNNRPS | SARDFSYFQVF | nd 3.93 nd | 2/9 (3.89) |
| EGDSIRYYYAN | GKNNRPS | SSRDSSGFRAF | 2.38 3.14 4.33 | 5/9 (3.61) |
| EGDCLRYYYLN | GKNNRPS | STRDSSGFQVF | 3.38 3.49 3.99 | 2/9 (3.85) |
| EGDSWRYYYAN | GKNNRIS | SSRDSSGFQGF | nd nd nd | 2/9 (3.90) |
| EGDSLRYDYAN | YKNNRPS | SSRDSSGFWVF | 3.96 nd 3.32 | 4/9 (4.19) |
| EGDSPFYYYAN | GKNNRPS | SSRDSSGFQPF | 4.16 nd nd | 5/9 (3.78) |
| EGDSLLYHYAN | GVNNRPS | SSRDSSGFQVF | 1.39 1.46 0.93 | 2/9 (5.16) |
| EWDSLRYYYFN | GKNGRPS | SSRDSSGFQVF | nd nd nd | 0/9 |
| EGDSLRYYGAN | GKNNRPS | SSRDSSGSAVF | 2.24 2.25 1.84 | 6/9 (3.53) |
| ENDSLRYYYAN | GKCNRPS | SSRDSSGFQVF | nd nd nd | 2/9 (3.70) |
| EGDSLRYYYAN | GKNNVPS | SSRDNIGFQVF | nd nd nd | 3/9 (3.59) |
| EGDALRYYYAN | GKNNRPS | SSRDDPGFQVF | 2.62 2.63 2.22 | 4/9 (3.67) |
| EGDSLRYYYAN | GENNRPS | SSRDSSGWSVF | 2.19 2.29 1.95 | 2/9 (3.59) |
| ENDSLRYYYAN | GMNLRPS | SSRDSSGFQVF | nd nd nd | 1/9 (3.29) |
| EGDSWRYYYAN | GKNNRPS | SSRDSSGCQVV | nd nd nd | 1/9 (3.23) |
| EGDSLRYYYAN | GKYNIPS | SSRDSPGFQVF | nd nd nd | 7/9 (4.66) |
| EGDSYRMYYAN | GKNNRWS | SSRDSSGFQVF | 3.48 3.76 4.22 | 3/9 (3.70) |
| EGDPLRYYYAN | GHNMRPS | SSRDSSGFQVF | 3.09 2.66 2.69 | 4/9 (3.57) |
| EGDSLRYYYSN | GKNNRPS | SSRAWSGFQVF | nd nd nd | 2/9 (4.09) |
| EGDYLRYYYHN | GKNNRPS | SSRDSSGFQHF | nd 5.32 nd | 2/9 (4.09) |
| EGDSLRYYLAN | GKNNRPM | SSRKSSGFQVF | 2.78 2.74 2.95 | 0/9 |

Top 4 of the variants detected in all replicates, tightest first:

CDR-L1,CDR-L2,CDR-L3,log10 Kd (nM) by replicate,control signals
EGDSLRYYDAN,GKNNRPS,SSRDNSGFQVT,0.83 1.14 0.46,1/9 (4.90)
EGDSLLYHYAN,GVNNRPS,SSRDSSGFQVF,1.39 1.46 0.93,2/9 (5.16)
EGDSLRYYGAN,GKNNRPS,SSRDSSGSAVF,2.24 2.25 1.84,6/9 (3.53)
EGDSLRYYYAN,GENNRPS,SSRDSSGWSVF,2.19 2.29 1.95,2/9 (3.59)